{"source": "patent US20240050531A1", "about": "“A METHOD FOR REVERSING AGING BRAIN FUNCTIONAL DECLINE” (THE CHINESE UNIVERSITY OF HONG KONG, priority 2020, published 2024)", "origin": "cited, not measured here", "target": "T1, GLP-1R (Rattus norvegicus, UniProt P32301)", "T1 construct": "host or cells: living rats (8 weeks old), endogenous receptor", "T1 sequence (P32301 22-463)": "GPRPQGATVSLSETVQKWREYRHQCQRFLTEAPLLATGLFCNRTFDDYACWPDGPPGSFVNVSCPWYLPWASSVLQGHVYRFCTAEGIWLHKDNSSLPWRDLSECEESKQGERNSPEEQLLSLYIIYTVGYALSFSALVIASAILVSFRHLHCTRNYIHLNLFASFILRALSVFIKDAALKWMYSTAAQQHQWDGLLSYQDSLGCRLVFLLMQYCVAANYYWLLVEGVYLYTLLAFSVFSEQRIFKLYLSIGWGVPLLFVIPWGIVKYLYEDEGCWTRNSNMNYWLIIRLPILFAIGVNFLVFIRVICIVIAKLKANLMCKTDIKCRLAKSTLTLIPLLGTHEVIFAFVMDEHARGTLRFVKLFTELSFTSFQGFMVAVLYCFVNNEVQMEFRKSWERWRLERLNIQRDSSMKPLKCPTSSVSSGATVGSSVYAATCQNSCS", "settings": "intracerebroventricular (i.c.v) administration, 8 weeks old rats", "data": [{"substance": "Glucagon-like peptide-1 [GLP-1]", "values": [{"measurement": "associative and spatial learning", "value": "enhance associative and spatial learning"}]}]}
